# Assay results reported in patent US9018255B2, “Esters of (acyloxymethyl)acrylamide, a pharmaceutical composition containing them, and their use as inhibitors of the thioredoxin—thioredoxin reductase system” (Instytut Chemii Organicznej Polskiej Akademii Nauk, priority 2010, dated 2015).
# The chains behind the UniProt entries cited, without tags or fusion partners. Where a name states a change or a piece, a line headed by the entry shows the natural chain unless it says otherwise.
# UniProt P10599: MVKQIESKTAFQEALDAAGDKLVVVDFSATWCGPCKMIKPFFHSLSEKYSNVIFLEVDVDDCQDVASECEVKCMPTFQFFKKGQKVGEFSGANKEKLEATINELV
# Biological target: human recombinant thioredoxin (Homo sapiens (Human), UniProt P10599)
# Test: Thioredoxin activity, insulin reduction / DTNB assay with recombinant enzymes
# Format: biochemical
# Conditions: 37° C., 30 min, 0.25 μM thioredoxin, 0.325 μM thioredoxin reductase; read-out: IC50 of thioredoxin inhibition
# Procedure: The method of determining thioredoxin activity is based on the reduction of insulin by thioredoxin. Thioredoxin is reconstituted is by thioredoxin reductase, with NADPH. The resulting free thiol —SH groups react with 5,5′-dithiobis-2-nitrobenzoic acid (DTNB). The termination of the reaction results in the formation of a […] colour. The intensity of colouration is determined spectrophotometrically at 412 nm and this corresponds to the number of reduced sulfahydryl groups. The reaction was performed at 37° C. over 30 min. in a buffer containing 50 mM Tris-HCl and 20 mM EDTA at a pH of 7.6. The substrate concentrations used were: 0.25 μM human recombinant thioredoxin and 0.325 μM rat recombinant thioredoxin reductase (IMCO Corporation Ltd AB, Sweden) and 316 μM of insulin, 0.8 μM NADPH, 8 mM DTNB (Sigma Aldrich).
structure (smiles),measurement,value
"CCC(C)SSc1ncc[nH]1 (stereo not shown) [PX-12, 1-methylpropyl-2-imidazole disulphide, reference compound]",IC50,15.4 µM
